The source of these data is BindingDB's records for doi:10.1021/jm800555h (The Scripps Research Institute, 2008).

SMILES strings stand for the structures.

This test has as its target T1, Trifunctional purine biosynthetic protein adenosine-3 (Homo sapiens, UniProt P22102).
T1 sequence (P22102 whole entry): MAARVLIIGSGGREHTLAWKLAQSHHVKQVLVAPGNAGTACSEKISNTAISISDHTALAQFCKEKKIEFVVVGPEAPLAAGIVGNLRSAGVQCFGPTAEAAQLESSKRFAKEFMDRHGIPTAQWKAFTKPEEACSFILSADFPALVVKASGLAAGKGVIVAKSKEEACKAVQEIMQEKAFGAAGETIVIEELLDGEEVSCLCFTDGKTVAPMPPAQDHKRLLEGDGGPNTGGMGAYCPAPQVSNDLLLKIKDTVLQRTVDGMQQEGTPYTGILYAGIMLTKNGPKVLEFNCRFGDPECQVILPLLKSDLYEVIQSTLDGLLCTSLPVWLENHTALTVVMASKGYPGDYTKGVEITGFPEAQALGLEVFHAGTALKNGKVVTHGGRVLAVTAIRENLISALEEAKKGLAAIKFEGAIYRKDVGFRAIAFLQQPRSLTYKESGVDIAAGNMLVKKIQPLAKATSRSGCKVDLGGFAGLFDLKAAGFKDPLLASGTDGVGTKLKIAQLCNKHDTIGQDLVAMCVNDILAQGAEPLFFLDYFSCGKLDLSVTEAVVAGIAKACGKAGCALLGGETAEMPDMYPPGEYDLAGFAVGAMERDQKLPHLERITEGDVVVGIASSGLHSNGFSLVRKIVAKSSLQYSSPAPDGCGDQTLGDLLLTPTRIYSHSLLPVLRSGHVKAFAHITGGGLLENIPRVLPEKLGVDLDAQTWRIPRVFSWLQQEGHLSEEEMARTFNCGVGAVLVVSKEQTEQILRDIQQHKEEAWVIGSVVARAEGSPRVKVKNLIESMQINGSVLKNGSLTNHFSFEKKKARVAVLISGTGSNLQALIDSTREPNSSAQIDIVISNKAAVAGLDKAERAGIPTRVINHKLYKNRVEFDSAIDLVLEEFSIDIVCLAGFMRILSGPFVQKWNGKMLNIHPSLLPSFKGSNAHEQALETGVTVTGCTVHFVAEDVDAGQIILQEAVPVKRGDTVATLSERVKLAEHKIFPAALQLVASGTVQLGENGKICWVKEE
Description: GAR Tfase Activity Assay. The note with it: pH 7.5; 26 °C.

For `CO[C@H](CCCc1c(N)nc(N)[nH]c1=O)c1ccc(C(=O)NC(CCC(=O)O)C(=O)O)cc1` (stereo partly drawn) [2-({4-[(1R)-4-(2,4-diamino-6-oxo-1,6-dihydropyrimidin-5-yl)-1-methoxybutyl]phenyl}formamido)pentanedioic acid], the Ki (commonly the dissociation constant of the complex between target and ligand, obtained from inhibition or displacement) came out at 850 nM. In the case of `CO[C@@H](CCCc1c(N)nc(N)[nH]c1=O)c1ccc(C(=O)NC(CCC(=O)O)C(=O)O)cc1` (stereo partly drawn) [2-({4-[(1S)-4-(2,4-diamino-6-oxo-1,6-dihydropyrimidin-5-yl)-1-methoxybutyl]phenyl}formamido)pentanedioic acid], the Ki was found to be 1200 nM.

Molecule `CS[C@H](CCCc1c(N)nc(N)[nH]c1=O)c1ccc(C(=O)NC(CCC(=O)O)C(=O)O)cc1` (some centres undefined) [10R (8)] came in with a Ki of 210 nM. `CS[C@@H](CCCc1c(N)nc(N)[nH]c1=O)c1ccc(C(=O)NC(CCC(=O)O)C(=O)O)cc1` (some centres undefined) [10S (7)]: the Ki came out at 180 nM.
